The assay deals with T1, Retinoic acid receptor RXR-alpha (Homo sapiens) (UniProt P19793).
T1 sequence (whole entry): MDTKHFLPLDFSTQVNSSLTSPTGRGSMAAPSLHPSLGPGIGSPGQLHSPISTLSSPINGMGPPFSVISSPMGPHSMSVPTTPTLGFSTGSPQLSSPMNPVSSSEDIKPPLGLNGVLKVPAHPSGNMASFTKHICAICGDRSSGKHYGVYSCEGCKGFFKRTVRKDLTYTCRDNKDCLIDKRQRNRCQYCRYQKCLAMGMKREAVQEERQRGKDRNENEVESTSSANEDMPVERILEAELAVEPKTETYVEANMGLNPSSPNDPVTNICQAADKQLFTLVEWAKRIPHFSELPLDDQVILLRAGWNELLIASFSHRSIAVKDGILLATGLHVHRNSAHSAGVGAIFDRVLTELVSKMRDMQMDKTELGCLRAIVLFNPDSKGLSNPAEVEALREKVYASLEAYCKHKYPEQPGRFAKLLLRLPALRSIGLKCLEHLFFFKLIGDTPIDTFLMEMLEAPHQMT
In words: Agonist activity at human GAL4-fused RXRalpha LBD expressed in human HEK293T cells cotransfected with pFR-Luc and pRL-SV40 assessed as increase in luciferase activity at 100 uM incubated for 16 hrs by Dual-Glo luciferase assay. The class given is cell-based.

The source made the active and inactive calls. No cut-off for these calls is given here.

For `O=C(O)c1ccccc1COc1cccc2c1CCC2`, the result was inactive.

(Values after ChEMBL document CHEMBL5316269, “Rational Design of a New RXR Agonist Scaffold Enabling Single-Subtype Preference for RXRα, RXRβ, and RXRγ” (J Med Chem, 2023).)
